Measurements taken from ChEMBL document CHEMBL4024727, “Synthesis and antimycobacterial screening of new thiazolyl-oxazole derivatives” (Eur J Med Chem, 2017).

Key:
[1] = Selectivity index, ratio of GI50 for human HeLa cells to MIC for Mycobacterium tuberculosis H37Ra ATCC 25177 dormant stage; format: toxicity, cell-based; settings: read-out: Selectivity Index
[2] = Selectivity index, ratio of GI50 for human HeLa cells to MIC for Mycobacterium bovis BCG ATCC 35743 dormant stage; format: toxicity, cell-based; settings: read-out: Selectivity Index

In the case of CO[C@H]1/C=C/O[C@@]2(C)Oc3c(C)c(O)c4c(O)c(c(/C=N/N5CCN(C)CC5)c(O)c4c3C2=O)NC(=O)/C(C)=C\C=C\[C@H](C)[C@H](O)[C@@H](C)[C@@H](O)[C@@H](C)[C@H](OC(C)=O)[C@@H]1C [RIFAMPIN], the selectivity ratio [1] is reported as 133 and the selectivity ratio [2] is reported as 123.
